60 molecules from ChEMBL document CHEMBL1159140, “DuP 747: sar study” (1992) can be followed below.

Protein sequences, listed by entry. Tags and fused reporters are not part of them. Lines headed by an entry give the natural chain unless they say otherwise; changes in a name come on top.
UniProt P35372, whole entry, looked up: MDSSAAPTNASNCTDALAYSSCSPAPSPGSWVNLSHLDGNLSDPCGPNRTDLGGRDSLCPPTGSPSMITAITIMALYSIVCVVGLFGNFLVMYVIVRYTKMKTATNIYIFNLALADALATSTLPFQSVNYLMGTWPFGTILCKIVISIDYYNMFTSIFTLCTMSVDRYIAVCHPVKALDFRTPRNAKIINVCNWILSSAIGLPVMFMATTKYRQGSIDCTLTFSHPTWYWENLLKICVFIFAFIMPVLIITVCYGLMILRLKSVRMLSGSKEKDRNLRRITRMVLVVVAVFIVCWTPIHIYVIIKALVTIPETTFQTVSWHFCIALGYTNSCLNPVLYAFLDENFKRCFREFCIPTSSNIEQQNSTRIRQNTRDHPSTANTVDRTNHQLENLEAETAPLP
UniProt P41145: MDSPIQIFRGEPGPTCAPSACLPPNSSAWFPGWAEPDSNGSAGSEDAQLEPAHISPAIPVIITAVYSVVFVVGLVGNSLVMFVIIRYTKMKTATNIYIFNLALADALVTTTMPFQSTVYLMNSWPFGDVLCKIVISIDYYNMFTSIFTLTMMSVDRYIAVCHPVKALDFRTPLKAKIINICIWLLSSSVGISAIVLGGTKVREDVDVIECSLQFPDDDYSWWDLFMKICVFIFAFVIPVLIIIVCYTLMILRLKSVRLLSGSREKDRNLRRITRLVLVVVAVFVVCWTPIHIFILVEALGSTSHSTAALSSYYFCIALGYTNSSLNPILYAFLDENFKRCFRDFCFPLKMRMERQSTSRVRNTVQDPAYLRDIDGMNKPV

Experiment [1] has as its target Mu-type opioid receptor (Homo sapiens) (UniProt P35372). Description: In vitro binding property against mu opioid receptor. Type of experiment: single protein.
The target in experiment [2] is Kappa-type opioid receptor (Homo sapiens) (UniProt P41145). Description: In vitro binding property against kappa opioid receptor. The experiment is classed as single protein.

Each structure is given as a SMILES string. Where “and” joins values, the source holds several entries; their conditions need not be identical. Identical values can stand only once.

With `CN(C(=O)Cc1ccc(Cl)c(Cl)c1)[C@H]1c2cccc(O)c2CC[C@@H]1N1CCCC1`, the results for the Activity in experiment [1] and in experiment [2] were 260 nM and 5 nM, respectively.

Consider `COc1cccc2c1CC[C@H](N1CCCC1)[C@H]2N(C)C(=O)Cc1c(Cl)cccc1Cl`, for which the Activity in experiment [1] was found to be 1340 nM; in experiment [2], 3250 nM.

For `Cc1ccc2c(c1)CC[C@H](N1CCCC1)[C@H]2N(C)C(=O)Cc1ccc(Cl)c(Cl)c1`, the Activity in experiment [1] worked out at 700 nM; in experiment [2], 70 nM.

For `COc1ccc(CC(=O)N(C)[C@H]2c3cccc(OC)c3CC[C@@H]2N2CCCC2)cc1OC`, the Activity was determined as 2660 nM in experiment [1] and 120 nM in experiment [2].

As to `CCOc1cccc2c1CC[C@H](N1CCCC1)[C@H]2N(C)C(=O)Cc1ccc(Cl)c(Cl)c1`, the Activity in experiment [1] was determined as 1630 nM; in experiment [2], 7 nM.

`CN(C(=O)Cc1ccc(Cl)c(Cl)c1)[C@H]1c2ccccc2C(c2ccccc2)C[C@@H]1N1CCCC1` (stereo not given in full): the Activity in experiment [1] was 1200 nM; in experiment [2], 190 nM.

In the case of `COc1cccc2c1CC[C@H](N1CCCC1)[C@H]2N(C)C(=O)Cc1csc2ccccc12`, the values for the Activity in experiment [1] and in experiment [2] were 245 nM and 15 nM, respectively.

Turning to `COc1cccc2c1CC[C@H](N1CCCC1)[C@H]2N(C)C(=O)Cc1cccc([N+](=O)[O-])c1`, the Activity in experiment [1] was found to be 510 nM; in experiment [2], 6 nM.

With `COc1cccc2c1CC[C@H](N1CCCC1)[C@H]2N(C)C(=O)Cc1ccc(C(F)(F)F)cc1`, the Activity in experiment [1] turned out to be 1200 nM; in experiment [2] it was 12 nM.

For the molecule `CN(C(=O)Cc1ccc(Cl)c(Cl)c1)[C@H]1c2ccc3ccccc3c2CC[C@@H]1N1CCCC1`, the figures for the Activity in experiment [1] and in experiment [2] were 4100 nM and 56 nM, respectively.

Take `CN(C(=O)Cc1ccc(Cl)c(Cl)c1)[C@H]1c2ccc(O)cc2CC[C@@H]1N1CCCC1`: the Activity in experiment [1] was 21 nM; in experiment [2], 1 nM.

Regarding `COc1cccc2c1CC[C@H](N1CCCC1)[C@H]2N(C)C(=O)COc1ccc(Cl)c(Cl)c1`, the results for the Activity in experiment [1] and in experiment [2] were 540 nM and 10 nM, respectively.

In the case of `Cc1c(O)ccc2c1CC[C@H](N1CCCC1)[C@H]2N(C)C(=O)Cc1ccc(Cl)c(Cl)c1`, the results for the Activity in experiment [1] and in experiment [2] were 1020 nM and 32 nM, respectively.

For the molecule `CN(C(=O)Cc1ccc(Cl)c(Cl)c1)[C@H]1c2ccccc2C[C@@H]1N1CCCC1`, the Activity was determined as 756 nM in experiment [1] and 7 nM in experiment [2].

Take `COc1cccc2c1CC[C@H](N1CCCC1)[C@H]2N(C)C(=O)Cc1ccc2c(c1)OCO2`: the figures for the Activity in experiment [1] and in experiment [2] were 775 nM and 14 nM, respectively.

As to `COc1ccc2c(c1OC)CC[C@H](N1CCCC1)[C@H]2N(C)C(=O)Cc1ccc(Cl)c(Cl)c1`, the Activity was found to be 2000 nM in experiment [1] and 32 nM in experiment [2].

In the case of `COc1cccc2c1CC[C@@H](N1CCCC1)[C@@H]2N(C)C(=O)Cc1ccc(Cl)c(Cl)c1`, the Activity in experiment [1] amounted to 260 nM; in experiment [2], 350 nM.

For the molecule `COc1cccc2c1CC[C@H](N1CCCC1)[C@H]2N(C)C(=O)Cc1cccc2ccccc12`, the Activity is 207 nM in experiment [1] and 13 nM in experiment [2].

Regarding `COc1ccc2c(c1)[C@H](N(C)C(=O)Cc1ccc(Cl)c(Cl)c1)[C@@H](N1CCCC1)CC2`, the Activity in experiment [1] is 1300 nM; in experiment [2] it was 94 nM.

With `COc1cc2c(cc1F)CC[C@H](N1CCCC1)[C@H]2N(C)C(=O)Cc1ccc(Cl)c(Cl)c1`, the Activity was found to be 6400 nM in experiment [1] and 400 nM in experiment [2].

For the molecule `CN(C(=O)Cc1ccc(Cl)c(Cl)c1)[C@H]1c2ccccc2CCC[C@@H]1N1CCCC1`, the Activity in experiment [1] was 6750 nM; in experiment [2] it was 87 nM.

On to `COc1ccc(CC(=O)N(C)[C@H]2c3cccc(OC)c3CC[C@@H]2N2CCCC2)cc1`, for which the results for the Activity in experiment [1] and in experiment [2] were 900 nM and 20 nM, respectively.

`COc1cccc2c1CC[C@H](N1CCCC1)[C@H]2N(C)C(=O)Cc1c(Cl)ccc(Cl)c1Cl`: the Activity was 350 nM in experiment [1] and 14 nM in experiment [2].

`CN(C(=O)Cc1ccc(Cl)c(Cl)c1)[C@@H]1Cc2ccccc2C[C@H]1N1CCCC1`: the Activity in experiment [1] is 615 nM; in experiment [2] it was 20 nM.

Take `COc1ccc(OC)c2c1CC[C@H](N1CCCC1)[C@H]2N(C)C(=O)Cc1ccc(Cl)c(Cl)c1`: the Activity was found to be 630 nM in experiment [1] and 7 nM in experiment [2].

In the case of `COc1cccc2c1CC[C@H](N1CCCC1)[C@H]2N(C)C(=O)Cc1cccnc1`, the Activity in experiment [1] is 10000 nM; in experiment [2], 230 nM.

`CCC(=O)Oc1cccc2c1CC[C@H](N1CCCC1)[C@H]2N(C)C(=O)Cc1ccc(Cl)c(Cl)c1`: the Activity is 530 nM in experiment [1] and 4 nM in experiment [2].

In the case of `COc1cccc2c1CC[C@H](N1CCCC1)[C@H]2N(C)C(=O)Cc1ccsc1`, the Activity in experiment [1] was determined as 21700 nM; in experiment [2] it was 144 nM.

For the molecule `COc1cccc2c1CC[C@H](N1CCCC1)[C@H]2N(C)C(=O)Cc1cccc(Cl)c1`, the Activity came out at 1600 nM in experiment [1] and 12 nM in experiment [2].

As to `COc1cc(Cl)cc2c1CC[C@H](N1CCCC1)[C@H]2N(C)C(=O)Cc1ccc(Cl)c(Cl)c1`, the results for the Activity in experiment [1] and in experiment [2] were 975 nM and 18 nM, respectively.

On to `COc1cccc2c1CC[C@H](N1CCCC1)[C@H]2N(C)C(=O)Cc1ccccc1[N+](=O)[O-]`, for which the Activity in experiment [1] was found to be 3600 nM; in experiment [2], 39 nM.

Consider `COCc1cccc2c1CC[C@H](N1CCCC1)[C@H]2N(C)C(=O)Cc1ccc(Cl)c(Cl)c1`, for which the values for the Activity in experiment [1] and in experiment [2] were above 10000 nM and 19 nM, respectively.

For `COc1cccc2c1CC[C@H](N1CCCC1)[C@H]2N(C)C(=O)Cc1ccc(C)c(C)c1`, the Activity in experiment [1] turned out to be 775 nM; in experiment [2], 8 nM.

Take `COc1cccc2c1CC[C@H](N(C)Cc1ccccc1)[C@H]2N(C)C(=O)Cc1ccc(Cl)c(Cl)c1`: the results for the Activity in experiment [1] and in experiment [2] were above 10000 nM and 3700 nM, respectively.

`COc1cccc2c1CC[C@H](N1CCCC1)[C@H]2N(C)C(=O)Cc1ccccc1Cl`: the Activity came out at 2500 nM in experiment [1] and 35 nM in experiment [2].

For `CN(C(=O)Cc1ccc(Cl)c(Cl)c1)[C@H]1c2cccc(OCC(N)=O)c2CC[C@@H]1N1CCCC1`, the Activity worked out at 335 nM in experiment [1] and 15 nM in experiment [2].

For the molecule `CN(C(=O)Cc1ccc(Cl)c(Cl)c1)[C@H]1c2ccc(O)c(O)c2CC[C@@H]1N1CCCC1`, the Activity came to 568 nM in experiment [1] and 9 nM in experiment [2].

Turning to `COc1cccc2c1CC[C@H](N1CCCC1)[C@H]2N(C)C(=O)Cc1ccc(Cl)cc1`, the Activity turned out to be 2200 nM in experiment [1] and 66 nM in experiment [2].

Turning to `CCN(C(=O)Cc1ccc(Cl)c(Cl)c1)[C@H]1c2cccc(OC)c2CC[C@@H]1N1CCCC1`, the Activity in experiment [1] was found to be 680 nM; in experiment [2] it was 120 nM.

With `CN(C)[C@H]1CCc2ccccc2[C@@H]1N(C)C(=O)Cc1ccc(Cl)c(Cl)c1`, the Activity was found to be 2310 nM in experiment [1] and 870 nM in experiment [2].

`COc1ccc2c(c1)CC[C@H](N1CCCC1)[C@H]2N(C)C(=O)Cc1ccc(Cl)c(Cl)c1`: the Activity in experiment [1] came out at 430 nM; in experiment [2] it was 8 nM.

On to `COc1cccc2c1CC[C@H](N1CCCC1)[C@H]2N(C)C(=O)Cc1ccncc1`, for which the Activity in experiment [1] is 33500 nM; in experiment [2], 15300 nM.

In the case of `COc1cccc2c1CC[C@H](N1CCCC1)[C@H]2N(C)C(=O)Cc1ccc(Cl)cc1Cl`, the Activity in experiment [1] was 450 nM; in experiment [2], 12 nM.

Take `CN(C(=O)Cc1ccc(Cl)c(Cl)c1)[C@H]1c2ccccc2CC[C@@H]1N1CCCC1`: the Activity is 545 nM and 453 nM in experiment [1]; 10 nM in experiment [2].

As for `CN(C(=O)Cc1ccc(Cl)c(Cl)c1)[C@H]1c2cc(O)c(O)cc2CC[C@@H]1N1CCCC1`, the Activity in experiment [1] was determined as 29 nM; in experiment [2] it was 1 nM.

Regarding `CN(C(=O)Cc1ccc(Cl)c(Cl)c1)[C@H]1c2ccc(O)c([N+](=O)[O-])c2CC[C@@H]1N1CCCC1`, the Activity in experiment [1] turned out to be 662 nM; in experiment [2], 5 nM.

As to `COc1cccc2c1CC[C@H](N1CCCC1)[C@H]2N(C)C(=O)Cc1ccc(SC)cc1`, the figures for the Activity in experiment [1] and in experiment [2] were 690 nM and 15 nM, respectively.

Turning to `CN(C(=O)Cc1ccc(Cl)c(Cl)c1)[C@H]1c2cccc(OCC(=O)O)c2CC[C@@H]1N1CCCC1`, the Activity in experiment [1] is above 10000 nM; in experiment [2], 7900 nM.

As for `CN(C(=O)Cc1ccc(Cl)c(Cl)c1)C1CCCCC1N1CCCC1` (stereo not given), the figures for the Activity in experiment [1] and in experiment [2] were 825 nM and 15 nM, respectively.

For the molecule `COc1cccc2c1CC[C@H](N1CCCC1)[C@H]2N(C)C(=O)Cc1ccc(Cl)c(Cl)c1`, the Activity was 304 nM and 750 nM in experiment [1]; 6 nM and 7 nM in experiment [2].

`COc1cccc2c1CC[C@H](N1CCCC1)[C@H]2N(C)C(=O)Cc1ccc(F)c(F)c1`: the Activity in experiment [1] worked out at 1460 nM; in experiment [2], 7 nM.

As for `CN(C(=O)Cc1ccc(Cl)c(Cl)c1)[C@H]1c2ccccc2C(C)(C)C[C@@H]1N1CCCC1`, the Activity in experiment [1] worked out at 277 nM; in experiment [2] it was 857 nM.

`COc1cccc2c1CC[C@H](N1CCCC1)[C@H]2N(C)C(=O)Cc1ccc(N)cc1`: the Activity in experiment [1] is above 10000 nM; in experiment [2], 140 nM.

`CN(C(=O)Cc1ccc(Cl)c(Cl)c1)[C@H]1c2cccc(CO)c2CC[C@@H]1N1CCCC1`: the values for the Activity in experiment [1] and in experiment [2] were 4380 nM and 5 nM, respectively.

Turning to `COc1cccc2c1CC[C@H](N1CCCC1)[C@H]2N(C)C(=O)Cc1cccc2sccc12`, the Activity in experiment [1] was determined as 285 nM; in experiment [2], 8 nM.

As to `CN(C(=O)Cc1ccc(Cl)c(Cl)c1)[C@H]1c2cc(O)ccc2CC[C@@H]1N1CCCC1`, the Activity in experiment [1] turned out to be 45 nM; in experiment [2], 3 nM.

`COc1cccc2c1CC[C@H](N1CCCC1)[C@H]2N(C)C(=O)Cc1ccc(Br)cc1`: the Activity in experiment [1] is 540 nM; in experiment [2], 34 nM.

On to `COc1cccc2c1CC[C@H](N1CCCC1)[C@H]2N(C)C(=O)Cc1ccc([N+](=O)[O-])cc1`, for which the Activity in experiment [1] turned out to be 1200 nM; in experiment [2], 10 nM.

As for `COc1cccc2c1CC[C@H](N1CCCC1)[C@H]2N(C)C(=O)Cc1ccc(F)cc1`, the Activity in experiment [1] is 1840 nM; in experiment [2], 19 nM.

Regarding `COc1c([N+](=O)[O-])ccc2c1CC[C@H](N1CCCC1)[C@H]2N(C)C(=O)Cc1ccc(Cl)c(Cl)c1`, the Activity was above 10000 nM in experiment [1] and 49 nM in experiment [2].
